Results: paper PMC4595045 (Journal of medicinal chemistry, 2013)

Amino acid sequences for entries named in this document (tags omitted).
UniProt P27732, whole entry: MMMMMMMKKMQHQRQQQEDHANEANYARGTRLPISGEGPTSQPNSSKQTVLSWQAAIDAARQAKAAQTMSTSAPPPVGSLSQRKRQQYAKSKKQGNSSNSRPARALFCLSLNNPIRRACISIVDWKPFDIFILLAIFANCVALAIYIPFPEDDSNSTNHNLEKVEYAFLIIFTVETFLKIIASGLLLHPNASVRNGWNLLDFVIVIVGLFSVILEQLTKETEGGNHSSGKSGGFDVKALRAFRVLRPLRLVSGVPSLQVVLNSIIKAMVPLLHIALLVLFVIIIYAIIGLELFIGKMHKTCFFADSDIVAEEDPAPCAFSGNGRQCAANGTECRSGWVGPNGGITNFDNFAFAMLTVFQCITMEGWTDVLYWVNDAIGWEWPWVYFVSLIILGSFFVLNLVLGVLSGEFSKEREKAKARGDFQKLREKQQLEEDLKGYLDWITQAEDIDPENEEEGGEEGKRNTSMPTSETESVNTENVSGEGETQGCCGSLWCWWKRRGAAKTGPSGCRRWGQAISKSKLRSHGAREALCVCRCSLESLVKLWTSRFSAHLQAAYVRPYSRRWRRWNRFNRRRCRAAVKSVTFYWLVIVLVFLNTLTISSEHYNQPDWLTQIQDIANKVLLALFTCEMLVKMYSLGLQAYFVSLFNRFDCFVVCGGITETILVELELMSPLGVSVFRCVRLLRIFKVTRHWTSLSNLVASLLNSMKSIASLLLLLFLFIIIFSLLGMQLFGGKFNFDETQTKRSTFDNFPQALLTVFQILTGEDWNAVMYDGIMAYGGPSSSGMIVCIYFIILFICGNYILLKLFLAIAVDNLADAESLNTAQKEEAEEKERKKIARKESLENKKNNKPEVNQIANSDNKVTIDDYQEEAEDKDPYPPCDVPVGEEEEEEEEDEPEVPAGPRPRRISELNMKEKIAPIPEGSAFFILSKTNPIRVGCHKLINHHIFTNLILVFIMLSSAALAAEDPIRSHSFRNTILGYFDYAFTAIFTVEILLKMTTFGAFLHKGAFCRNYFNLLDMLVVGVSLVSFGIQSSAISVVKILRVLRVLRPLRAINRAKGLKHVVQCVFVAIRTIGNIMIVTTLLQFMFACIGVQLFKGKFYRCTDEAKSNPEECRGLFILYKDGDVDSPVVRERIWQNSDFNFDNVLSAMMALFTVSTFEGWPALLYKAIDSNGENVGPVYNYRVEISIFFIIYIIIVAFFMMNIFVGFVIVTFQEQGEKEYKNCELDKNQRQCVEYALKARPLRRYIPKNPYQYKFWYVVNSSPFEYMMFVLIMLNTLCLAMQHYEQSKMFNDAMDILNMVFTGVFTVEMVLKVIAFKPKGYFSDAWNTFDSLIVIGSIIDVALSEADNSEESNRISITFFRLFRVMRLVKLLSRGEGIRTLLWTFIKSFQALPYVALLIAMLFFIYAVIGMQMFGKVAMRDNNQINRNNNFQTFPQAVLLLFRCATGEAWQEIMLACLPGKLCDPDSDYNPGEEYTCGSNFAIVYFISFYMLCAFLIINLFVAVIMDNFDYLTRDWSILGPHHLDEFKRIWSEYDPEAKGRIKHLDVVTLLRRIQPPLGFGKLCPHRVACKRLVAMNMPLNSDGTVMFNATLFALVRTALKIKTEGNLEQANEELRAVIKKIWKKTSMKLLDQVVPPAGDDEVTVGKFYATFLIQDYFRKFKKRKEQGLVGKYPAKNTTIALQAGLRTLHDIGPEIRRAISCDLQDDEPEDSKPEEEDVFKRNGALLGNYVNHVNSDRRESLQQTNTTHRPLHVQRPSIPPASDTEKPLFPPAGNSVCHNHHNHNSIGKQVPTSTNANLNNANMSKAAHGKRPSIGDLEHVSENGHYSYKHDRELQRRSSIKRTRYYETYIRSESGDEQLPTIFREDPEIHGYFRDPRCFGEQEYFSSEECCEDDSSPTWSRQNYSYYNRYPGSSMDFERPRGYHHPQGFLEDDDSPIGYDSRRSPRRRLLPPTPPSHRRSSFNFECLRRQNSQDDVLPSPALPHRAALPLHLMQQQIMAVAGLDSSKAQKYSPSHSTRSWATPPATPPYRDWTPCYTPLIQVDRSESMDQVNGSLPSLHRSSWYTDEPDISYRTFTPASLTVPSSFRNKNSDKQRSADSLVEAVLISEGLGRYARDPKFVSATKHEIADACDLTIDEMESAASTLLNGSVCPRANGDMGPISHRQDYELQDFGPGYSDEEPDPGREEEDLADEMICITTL

target: CaV1.3 LTCCs (Rattus norvegicus, UniProt P27732); experiment: FLIPR Fluo-8 calcium influx assay, HEK293 cells stably expressing CaV1.3; type: cell-based; conditions: CaV1.3 over CaV1.2

SMILES | Selectivity, ratio of the IC50 values (CaV1.2/CaV1.3)
C[C@H]1[C@H](N2C(=O)CC(=O)N(CCc3ccc(Cl)cc3)C2=O)C[C@@H]2C[C@H]1C2(C)C [Compound 58] | >6
O=C1CC(=O)N(C2CCCC2)C(=O)N1CC1(c2ccc(Cl)cc2)CC1 [Compound 96, 1-((1-(4-Chlorophenyl)cyclopropyl)methyl)-3-cyclopentyl-pyrimidine-2,4,6(1H,3H,5H)-trione] | >26
O=C1CC(=O)N([C@H]2C[C@H]3CC[C@@H]2C3)C(=O)N1CCc1cccc(C(F)(F)F)c1 [Compound 107, 1-((1R,2S,4S)-Bicyclo-[2.2.1]heptan-2-yl)-3-(3-(trifluoromethyl)phenethyl)-pyrimidine-2,4,6(1H,3H,5H)-trione] | >33.0
C[C@H](C1CCCCC1)N1C(=O)CC(=O)N(CCc2cccc(Cl)c2)C1=O [Compound 45, (R)-1-(3-Chlorophenethyl)-3-(1-cyclohexylethyl)pyrimidine-2,4,6(1H,3H,5H)-trione] | >10
